# Counter-ions that a name gives are not always drawn.
# What was measured:
# Bacteriodes fragilis = assay: Experimentally induced abscess model study in cats; type: in vivo; conditions: 14 days after a single administration of 8 mg/kg
# Pasteurella multocida = assay: Experimentally induced abscess model study in cats; type: in vivo; conditions: 14 days after a single administration of 8 mg/kg
# pathogenic Staphylococci = assay: Populations of pathogenic Staphylococci in healthy dogs; conditions: single administration of 8 mg/kg, for four weeks, compared to non-treated control animals
compound,measurement,setting,value
"CO/N=C(\C(=O)N[C@@H]1C(=O)N2C(C(=O)O)=C([C@@H]3CCCO3)CS[C@H]12)c1csc(N)n1 [Compound I, (6R,7R)-7-[[(2Z)-(2-amino-4-thiazolyl)(methoxyimino)acetyl]amino]-8-oxo-3-[(2S)-tetrahydro-2-furanyl]-5-thia-1-azabicyclo[4.2.0]oct-2-ene-2-carboxylic acid, monosodium salt]",reduction in the numbers of Bacteriodes fragilis bacteria,Bacteriodes fragilis,substantial reduction
same,reduction in the numbers of Pasteurella multocida bacteria,Pasteurella multocida,substantial reduction
same,reduction of the populations of pathogenic Staphylococci,pathogenic Staphylococci,significant reduction
